Results: paper PMC7179312 (Antimicrobial Agents and Chemotherapy, 2020)

Columns and labels:
[1] = system: P. aeruginosa PAM1154 carrying pUCP24-KPC-2 (PAM4135); assay: MIC, CLSI broth microdilution; type: cell-based; conditions: Pseudomonas aeruginosa; PAM4135, pUCP24-KPC-2; drug alone
Text: The effects of KPC mutations on resistance to various antibiotics were investigated. For these studies, pUCP24 plasmids carrying wild-type and mutant blaKPC-2 genes as well as the pUCP24 vector were transformed into PAM1154, an efflux-deficient strain of Pseudomonas aeruginosa. In this host, the effect of β-lactamases on β-lactam MIC is amplified due to the slowed uptake of β-lactams across the low-permeability outer membrane without interference by efflux of either β-lactams or BLIs. Consequently, this host allows detection of β-lactamase activity (as an MIC increase) of low-catalytic-efficiency enzymes that rely heavily on the low permeability of the outer membrane. Using the strain that lacks efflux pumps ensures no interference from efflux in interpreting results. We next evaluated the steady-state protein expression levels in bacterial cells.
For microbiological studies, wild-type blaKPC-2 and its mutant variants were cloned into the shuttle vector pUCP24. Resulting plasmids were transformed in the efflux-deficient strain of P. aeruginosa PAM1154 using selection on 15 μg/ml of gentamicin. […] MICs were determined using the Clinical and Laboratory Standards Institute (CLSI) broth microdilution method as described in CLSI document M07-A11 ([42]). […] E50 is calculated as the square root of the product of the antibiotic MICs for the KPC-producing and the vector-only strains.

[2] = system: P. aeruginosa PAM1154 carrying wild-type KPC-2 (PAM4135); assay: Checkerboard potentiation of antibiotic activity by BLIs; type: cell-based, Pseudomonas aeruginosa; conditions: PAM4135 KPC-2
Text: BLI potency was defined as PV50 (PV, potentiation value) of antibiotic potentiation. PV50 is the concentration of a BLI that is required to reduce the antibiotic MIC to the middle of the MIC range where the highest MIC is the MIC for a KPC-producing strain with no inhibitor added and the lowest MIC is the MIC for the vector-alone strain, which corresponds to complete inhibition of KPC. As a given MIC is directly related to the β-lactamase activity, PV50 might be considered the concentration of a BLI that is required to achieve half-effect of inhibition of β-lactamase activity (in whole cells) to hydrolyze an antibiotic of interest. […] However, the accurate determination of PV50 requires the MIC range to be relatively wide.
For microbiological studies, wild-type blaKPC-2 and its mutant variants were cloned into the shuttle vector pUCP24. Resulting plasmids were transformed in the efflux-deficient strain of P. aeruginosa PAM1154 using selection on 15 μg/ml of gentamicin. Using a strain of P. aeruginosa as opposed to E. coli as a host for various cloned genes was based on the following consideration. As well documented elsewhere ([41]), P. aeruginosa has a low-permeability outer membrane; consequently, the effect of β-lactamases on MIC is amplified in P. aeruginosa compared to that in E. coli due to the slowed uptake of β-lactams. Thus, this host is appropriate to detect β-lactamase activity (as an MIC increase) of low-catalytic-efficiency enzymes that rely heavily on low permeability of the outer membrane. […] MICs were determined using the Clinical and Laboratory Standards Institute (CLSI) broth microdilution method as described in CLSI document M07-A11 ([42]). […] BLI potency was defined as PV50 (PV, potentiation value). PV50 is the minimal concentration of a BLI that is required to reduce the antibiotic MIC to the middle of the MIC range (E50) where the highest MIC is the MIC for a KPC-producing strain with no inhibitor added and the lowest MIC is the MIC for the vector-only strain, corresponding to the complete inhibition of KPC. E50 is calculated as the square root of the product of the antibiotic MICs for the KPC-producing and the vector-only strains.
[…]
8 antibiotic MIC values for the beta-lactamas e-producing and the vector onl y strain.

CCN1CCN(C(=O)N[C@@H](C(=O)N[C@@H]2C(=O)N3[C@@H]2SC(C)(C)[C@@H]3C(=O)O)c2ccccc2)C(=O)C1=O [Piperacillin, piperacillin]
MIC [1]: 128 µg/mL | Beta-lactam MIC in the presence of BLI ([2]; avibactam 0.06 µg/ml): 64 µg/mL | Beta-lactam MIC in the presence of BLI ([2]; avibactam 0.5 µg/ml): 2 µg/mL | Beta-lactam MIC in the presence of BLI ([2]; avibactam 1 µg/ml): 1 µg/mL | Beta-lactam MIC in the presence of BLI ([2]; avibactam 2 µg/ml): 0.5 µg/mL | Antibiotic MIC with avibactam at 4 μg/ml ([2]; avibactam 4 μg/ml): 0.5 µg/mL | Beta-lactam MIC in the presence of BLI ([2]; avibactam 4 μg/ml): 0.5 µg/mL | Beta-lactam MIC in the presence of BLI ([2]; avibactam 64 µg/ml): 0.03 µg/mL | Antibiotic MIC, No BLI ([2]; no BLI): 128 µg/mL | Beta-lactam MIC in the presence of BLI ([2]; vaborbactam 0.5 µg/ml): 8 µg/mL | Beta-lactam MIC in the presence of BLI ([2]; vaborbactam 1 µg/ml): 1 µg/mL | Beta-lactam MIC in the presence of BLI ([2]; vaborbactam 2 µg/ml): 0.5 µg/mL | Beta-lactam MIC in the presence of BLI ([2]; vaborbactam […]): 64 µg/mL
